Experimental data published in patent US8414660B2, “Haloferax volcanii laccase and variants and fragments thereof” (University of Florida Research Foundation, Inc., priority 2009, dated 2013).

The chains behind the UniProt entries cited, without tags or fusion partners. Residues count along the entry.
UniProt D4GPK6, 32-579: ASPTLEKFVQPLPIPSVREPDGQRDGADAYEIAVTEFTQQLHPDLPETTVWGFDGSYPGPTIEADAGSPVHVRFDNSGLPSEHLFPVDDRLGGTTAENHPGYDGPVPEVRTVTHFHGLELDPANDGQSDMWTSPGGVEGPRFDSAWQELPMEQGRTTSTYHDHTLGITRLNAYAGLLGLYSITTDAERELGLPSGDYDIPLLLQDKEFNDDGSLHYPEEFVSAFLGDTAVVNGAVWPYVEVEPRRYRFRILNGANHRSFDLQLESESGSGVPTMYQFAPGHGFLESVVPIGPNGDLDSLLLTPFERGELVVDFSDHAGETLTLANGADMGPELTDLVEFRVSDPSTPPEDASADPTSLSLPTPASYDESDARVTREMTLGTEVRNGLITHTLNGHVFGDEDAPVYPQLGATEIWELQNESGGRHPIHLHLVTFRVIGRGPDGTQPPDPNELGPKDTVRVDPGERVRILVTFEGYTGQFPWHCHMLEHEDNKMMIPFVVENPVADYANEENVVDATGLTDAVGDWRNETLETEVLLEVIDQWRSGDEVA

Target: LccA isolated from Hfx. volcanii SB01 (Haloferax volcanii, UniProt D4GPK6)
Assay: Effect of various compounds (inhibitors) on LccA activity, SGZ oxidation
Type: biochemical

## [N-]=[N+]=[N-]
1 mM
  Inhibition of LccA: 50%
Compound 1 mM, 10 min at 45° C.
  Relative Activity of LccA: 55.2 ± 2.7%
